Columns and labels:
Glucocorticoid Receptor = target: T1, Glucocorticoid Receptor (Homo sapiens, UniProt P04150); test: Glucocorticoid receptor binding, relative binding affinity (RBA); conditions: RBA relative to dexamethasone = 100
T1 sequence (P04150 1-777): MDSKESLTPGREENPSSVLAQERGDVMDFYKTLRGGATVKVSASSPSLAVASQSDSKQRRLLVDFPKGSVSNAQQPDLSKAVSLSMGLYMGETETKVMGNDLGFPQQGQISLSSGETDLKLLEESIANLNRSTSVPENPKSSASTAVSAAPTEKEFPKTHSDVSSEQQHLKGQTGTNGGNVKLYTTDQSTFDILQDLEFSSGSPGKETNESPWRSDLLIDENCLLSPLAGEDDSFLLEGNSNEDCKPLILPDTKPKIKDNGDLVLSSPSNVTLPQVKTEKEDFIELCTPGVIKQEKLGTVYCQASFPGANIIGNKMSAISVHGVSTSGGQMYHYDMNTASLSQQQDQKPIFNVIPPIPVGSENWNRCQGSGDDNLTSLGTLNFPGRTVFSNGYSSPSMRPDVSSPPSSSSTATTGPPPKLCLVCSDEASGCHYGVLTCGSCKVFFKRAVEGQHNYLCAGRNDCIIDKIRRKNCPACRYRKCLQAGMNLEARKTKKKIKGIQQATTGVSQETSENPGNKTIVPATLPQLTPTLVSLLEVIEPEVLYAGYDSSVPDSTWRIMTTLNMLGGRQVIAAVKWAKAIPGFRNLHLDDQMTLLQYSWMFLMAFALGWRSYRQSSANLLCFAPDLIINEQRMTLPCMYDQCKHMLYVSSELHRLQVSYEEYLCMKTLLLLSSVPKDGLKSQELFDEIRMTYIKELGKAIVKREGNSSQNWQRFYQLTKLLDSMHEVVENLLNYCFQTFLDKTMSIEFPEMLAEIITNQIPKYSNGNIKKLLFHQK

Progesterone Receptor = target: T2, Progesterone Receptor (Homo sapiens, UniProt P06401); test: Progesterone receptor binding, relative binding affinity (RBA); conditions: RBA relative to progesterone = 100
T2 sequence (P06401 1-933): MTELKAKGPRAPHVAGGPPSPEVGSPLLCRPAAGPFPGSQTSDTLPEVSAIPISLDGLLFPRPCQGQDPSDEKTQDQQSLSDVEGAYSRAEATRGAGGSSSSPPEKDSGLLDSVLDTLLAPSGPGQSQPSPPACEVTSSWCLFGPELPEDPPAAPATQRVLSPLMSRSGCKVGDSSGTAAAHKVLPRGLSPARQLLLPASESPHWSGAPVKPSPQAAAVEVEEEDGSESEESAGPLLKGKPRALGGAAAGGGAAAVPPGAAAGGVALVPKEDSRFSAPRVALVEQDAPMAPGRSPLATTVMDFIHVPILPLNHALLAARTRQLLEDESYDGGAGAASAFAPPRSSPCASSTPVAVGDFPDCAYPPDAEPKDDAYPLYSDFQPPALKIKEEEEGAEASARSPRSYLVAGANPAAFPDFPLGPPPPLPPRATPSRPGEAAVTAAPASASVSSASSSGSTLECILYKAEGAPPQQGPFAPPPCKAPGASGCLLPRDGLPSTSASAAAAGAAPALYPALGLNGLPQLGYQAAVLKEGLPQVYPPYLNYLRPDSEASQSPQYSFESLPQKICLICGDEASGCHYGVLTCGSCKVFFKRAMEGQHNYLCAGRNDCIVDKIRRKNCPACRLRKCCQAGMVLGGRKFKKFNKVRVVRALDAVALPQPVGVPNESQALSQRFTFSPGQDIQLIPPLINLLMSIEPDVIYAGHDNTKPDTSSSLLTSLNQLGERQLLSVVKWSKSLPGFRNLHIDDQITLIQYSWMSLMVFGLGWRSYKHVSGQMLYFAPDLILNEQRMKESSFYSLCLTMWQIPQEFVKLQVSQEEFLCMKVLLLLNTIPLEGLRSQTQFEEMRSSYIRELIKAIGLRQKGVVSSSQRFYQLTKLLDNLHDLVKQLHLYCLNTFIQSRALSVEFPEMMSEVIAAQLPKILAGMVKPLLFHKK

In the case of `CC#C[C@]1(O)CC[C@H]2[C@@H]3CCC4=CC(=O)CCC4=C3[C@@H](c3ccc(N(C)C)cc3)C[C@@]21C` [RU 38486, 11β-(4-dimethylamino)phenyl-17β-hydroxy-17α-propyn-1-yl-estra-4,9-dien-3-one, reference compound], the “Relative Binding Affinity to Glucocorticoid Receptor, %” value (Glucocorticoid Receptor) is reported as 683% and the “Relative Binding Affinity to Progesterone Receptor, %” value (Progesterone Receptor) is reported as 504%.

Reference: US7250408B2, “Glucocorticoid receptor antagonists for prophylaxis and therapy of glucocorticoid-mediated hypogonadism, of sexual dysfunction and/or infertility” (Bayer Schering Pharma AG, priority 2002, dated 2007)
